Earlier results as cited in patent US20260262651A1, “COPPER OXYCHLORIDE/ZINEB NANO-SUSPENSION DISPERSION” (priority 2023, published 2026).

Details: pH 6.5, 20° C.

In the case of “Dicopper chloride trihydroxide [copper oxychloride]”, the solubility in water is given as 506 ng/mL.
